Assay results reported in US3979508A, “Compositions and methods therewith for penicillin hypersensitivity detection” (Kremers-Urban Company, priority 1975, dated 1976).

Tested on: penicillin hypersensitivity (patients)
Experiment: Clinical evaluation by 26 investigators: scratch/intradermal skin tests with PPL and Penicillin G (Tables IV-VII, IX-XI)
Type: in vivo, human
Procedure: Twenty-six clinical investigators contributed a total of 1160 cases to the evaluation. Patients were tested according to a protocol as follows:
1. All patients being subjected to allergy investigation were to be tested for penicillin hypersensitivity. Two preparations were to be used. These are:
1. Penicilloyl-polylysine (PPL) prepared by the procedure set forth in Example I and as identified in Example II in a concentration of 6 × 10^-^5 M (Penicilloyl).
2. Penicillin G (Benzyl Penicillin) in a concentration of 10,000 units per cc.
For maximum safety, it was recommended that the tests first be done by the scratch technique. Intradermal tests were then to be done on those showing negative scratch tests. […]
A uniform technique was recommended for the performance of the intradermal tests. […] The reactions were to be recorded in terms of (1) the time required for the appearance of a reaction, (2) the size of erythema and (3) the size of whealing. These were to be recorded as actual measurements. Some objective measurement of dermographism was also to be recorded. […]
Table IV summarizes the skin test results on all patients, without regard to other specific factors. […] For these reasons erythema alone responses were counted with the negatives. In some instances, however, data will be presented in which erythema without wheal are counted as positive responses (figures appearing in parentheses).

## penicilloyl-poly-L-lysine [PPL]
  safety of skin testing: safe
